Laboratory results reported in PubChem BioAssay AID686996 (Broad Institute, 2013).
The entries are a selection whose mix differs from that of the whole data set. Some salts and complexes are drawn in separate pieces, as the source files them; their charges need not balance. Calls of active or inactive are those of the source.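 The calls were made as follows: active = mean inhibition across replicates at least about 35%, with every replicate also reaching that limit (limit read from the data); inconclusive = only one of the two criteria met; inactive = neither criterion met.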

Sequences of proteins named here, by UniProt entry; tags and fusion partners are left off. Residues count along the entry.
UniProt P55212, 24-179 limits assumed: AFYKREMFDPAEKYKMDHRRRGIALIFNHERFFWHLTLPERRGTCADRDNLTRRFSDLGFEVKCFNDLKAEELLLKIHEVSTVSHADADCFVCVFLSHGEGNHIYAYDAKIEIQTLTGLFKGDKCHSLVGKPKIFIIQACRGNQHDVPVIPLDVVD
UniProt P55212, 194-293 limits assumed: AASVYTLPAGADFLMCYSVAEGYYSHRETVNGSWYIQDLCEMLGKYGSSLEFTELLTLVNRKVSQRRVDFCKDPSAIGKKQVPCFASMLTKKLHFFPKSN

These compounds were tested against Caspase-6 (Homo sapiens) (UniProt P55212) (assay: human caspase-6 inhibitors, primary screen, biochemical, VEID-R110 fluorescence, single point, set 2 (AID 686996;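 also: 0% = median of neutral control wells and 100% = no fluorescence left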)). Conditions: purified caspase-6, Z-VEID-R110 cleavage fluorescence; at 12.5 µM; active compounds read high.
`COc1ccc(NP(C)(=O)Oc2ccccc2OC)cc1` (stereo unspecified) was tested, and the inhibition was inactive: -0.957%.
In the case of `Cc1c(C(c2ccc3c(c2)OCO3)c2c(C)n(C)n(-c3ccccc3)c2=O)c(=O)n(-c2ccccc2)n1C.O=[N+]([O-])c1cc([N+](=O)[O-])c(O)c([N+](=O)[O-])c1`, the inhibition is reported as inactive: 1.46%.
With `O=[N+]([O-])c1ccc(OP2(=O)COCCO2)cc1` (stereo unspecified) the inhibition was inactive: 2.81%.
With `Cc1cc(-c2cccc3ccccc23)c(C)cn1.O=[N+]([O-])c1cc([N+](=O)[O-])c(O)c([N+](=O)[O-])c1` the inhibition was inactive: 7.68%.
In the case of `O=[N+]([O-])c1cc([N+](=O)[O-])c(NCC2CCS(=O)(=O)C2)c([N+](=O)[O-])c1` (stereo unspecified), the inhibition is reported as inactive: 1.22%.
`CCOP(=O)(CC)OCC` was tested, and the inhibition was inactive: -1.07%.
With `CP(=O)(Nc1ccc(SC(F)(F)F)cc1)Oc1ccc(F)cc1` (stereo unspecified) the inhibition was inactive: 2.33%.
`O=[N+]([O-])c1cc([N+](=O)[O-])c(C(F)(F)F)c([N+](=O)[O-])c1O` was tested, and the inhibition was inactive: 1.68%.
With `CP(=O)(Nc1ccccc1F)Oc1ccccc1` (stereo unspecified) the inhibition was inactive: 0.413%.
With `CC(C)c1ccc(OP(C)(=O)Nc2ccc(SC(F)(F)F)cc2)cc1` (stereo unspecified) the inhibition was inactive: 0.84%.
For `O=[N+]([O-])c1cc([N+](=O)[O-])c(Nc2ccc(Cl)cc2)c([N+](=O)[O-])c1`, the inhibition was inactive: -2.62%.
`COc1ccc2c(c1O)-c1c(O)c(OC)cc3c1[C@H](C2)[N+](C)(C)CC3.O=[N+]([O-])c1cc([N+](=O)[O-])c([O-])c([N+](=O)[O-])c1[O-]` was tested, and the inhibition was inactive: 6.3%.
For `O=C(OC1CN2CCC1CC2)c1ccc([N+](=O)[O-])cc1` (stereo unspecified), the inhibition was inactive: -53.7%.
`O=C(OCCN1CCN(CCOCc2ccccc2)CC1)C(O)(c1ccccc1)c1ccccc1` was tested, and the inhibition was inactive: -5.67%.
`COc1ccc(OP(C)(=O)Nc2ccc(SC(F)(F)F)cc2)cc1` (stereo unspecified) was tested, and the inhibition was inactive: 2.39%.
With `CCN(CC)CCCNc1ccccc1[N+](=O)[O-].O=[N+]([O-])c1cc([N+](=O)[O-])c(O)c([N+](=O)[O-])c1` the inhibition was inactive: -15.3%.
For `O=[N+]([O-])c1cc([N+](=O)[O-])c(OC2CCCCC2O)c([N+](=O)[O-])c1` (stereo unspecified), the inhibition was inactive: 19.6%.
With `CCCCCOc1ccc(NP(C)(=O)Oc2ccc(Cl)cc2Cl)cc1` (stereo unspecified) the inhibition was inactive: -0.891%.
In the case of `Cc1c([N+](=O)[O-])cc([N+](=O)[O-])c(Br)c1[N+](=O)[O-]`, the inhibition is reported as inactive: 3.86%.
In the case of `Cc1cc(C)cc(OP(C)(=O)Nc2cccc(C(F)(F)F)c2)c1` (stereo unspecified), the inhibition is reported as inactive: 0.936%.
With `O=C1C(O)=C([N+](=O)[O-])C(=O)C(O)=C1[N+](=O)[O-]` the inhibition was active: 63.1%.
`CP(=O)(OCCOc1ccccc1)OCCOc1ccccc1` was tested, and the inhibition was inactive: -0.793%.
For `CP(=O)(Nc1ccc(Cl)cc1Cl)Oc1ccccc1` (stereo unspecified), the inhibition was inactive: -3.23%.
In the case of `CCCCCCCCCCCCCCCC1C[N+](C)(C)CCOP(C)(=O)O1` (stereo unspecified), the inhibition is reported as inactive: -214%.
With `COc1ccccc1OP(C)(=O)Nc1ccc(Br)cc1` (stereo unspecified) the inhibition was inactive: 0.816%.
For `O=[N+]([O-])c1cc([N+](=O)[O-])c(Nc2ccccn2)c([N+](=O)[O-])c1`, the inhibition was inactive: 10.3%.
`O=C(OCCCN1CCCC1)C(O)(c1ccccc1)C1CCCCC1` (stereo unspecified) was tested, and the inhibition was inactive: -5.69%.
In the case of `CCc1ccc(OP(C)(=O)Nc2cccnc2)cc1` (stereo unspecified), the inhibition is reported as inactive: 6.19%.
For `CN(C)C(=O)c1c([N+](=O)[O-])cc([N+](=O)[O-])cc1[N+](=O)[O-]`, the inhibition was inactive: -0.816%.
For `COc1ccccc1OP(C)(=O)Nc1ccccc1Br` (stereo unspecified), the inhibition was inactive: -2.52%.
`CCOC(=O)c1ccc(NP(C)(=O)Oc2ccc(Cl)cc2)cc1` (stereo unspecified) was tested, and the inhibition was inactive: 6.77%.
For `Nc1ccc2c(ccc3cccnc32)n1.O=[N+]([O-])c1cc([N+](=O)[O-])c(O)c([N+](=O)[O-])c1`, the inhibition was inactive: -0.55%.
In the case of `CP(=O)(Nc1ccccc1Br)Oc1ccccc1` (stereo unspecified), the inhibition is reported as inactive: -0.486%.
With `COc1ccccc1OP(C)(=O)Nc1ccccc1` (stereo unspecified) the inhibition was inactive: -2.69%.
For `CCc1ccc(OP(C)(=O)N2CCN(c3ccc([N+](=O)[O-])cc3)CC2)cc1` (stereo unspecified), the inhibition was inactive: 4.05%.
In the case of `CP(=O)(NC(=O)Nc1ccccc1)Oc1ccccc1` (stereo unspecified), the inhibition is reported as inactive: 2.53%.
In the case of `CP(=O)(Oc1ccccc1)OC(c1ccccc1)C(F)(F)F` (stereo unspecified), the inhibition is reported as inactive: 5.69%.
`CP(=O)(Nc1ccc(SC(F)(F)F)cc1)Oc1ccc(Cl)cc1` (stereo unspecified) was tested, and the inhibition was inactive: 4.66%.
With `CP(=O)(Nc1ccccn1)Oc1ccc(Cl)cc1` (stereo unspecified) the inhibition was inactive: 0.821%.
`CCOC(=O)c1ccc(NP(C)(=O)Oc2ccc(OC)cc2)cc1` (stereo unspecified) was tested, and the inhibition was inactive: 0.906%.
With `O=[N+]([O-])c1cc([N+](=O)[O-])c(O)c([N+](=O)[O-])c1.c1ccc(Oc2ccncc2)cc1` the inhibition was inactive: -3.32%.
In the case of `CCN(CC)CCCOC(=O)C(O)(c1ccccc1)c1ccccc1`, the inhibition is reported as inactive: -5.46%.
In the case of `COc1ccccc1-c1ccccn1.O=[N+]([O-])c1cc([N+](=O)[O-])c(O)c([N+](=O)[O-])c1`, the inhibition is reported as inactive: 1.51%.
`O=[N+]([O-])c1ccc2c(c1)C=Nc1ccccc1O2` was tested, and the inhibition was inactive: -2.07%.
For `Cc1cccc(C)c1OP(C)(N)=O` (stereo unspecified), the inhibition was inactive: -3.03%.
For `CC(C)(C)c1ccc(OP(C)(=O)Nc2ccc(SC(F)(F)F)cc2)cc1` (stereo unspecified), the inhibition was inactive: -2.71%.
With `Cc1cc(C)cc(OP(C)(N)=O)c1` (stereo unspecified) the inhibition was inactive: -5.18%.
For `COc1ccccc1OP(C)(=O)Nc1cc(Cl)ccc1C` (stereo unspecified), the inhibition was inactive: 1.12%.
In the case of `O=C(O)c1cccc(Nc2c([N+](=O)[O-])cc([N+](=O)[O-])cc2[N+](=O)[O-])c1`, the inhibition is reported as inactive: 6.72%.
For `CCOC(=O)c1ccc(NP(C)(=O)Oc2cc(C)cc(C)c2)cc1` (stereo unspecified), the inhibition was inactive: 0.352%.
For `Cc1cc(C)cc(OP(C)(=O)Nc2ccc(C)cc2C)c1` (stereo unspecified), the inhibition was inactive: 3.46%.
In the case of `COc1ccccc1OP(C)(=O)Nc1cccc(Br)c1` (stereo unspecified), the inhibition is reported as inactive: -0.989%.
With `Cc1cc(C)cc(OP(C)(=O)Nc2ccccn2)c1` (stereo unspecified) the inhibition was inactive: -1.13%.
With `CN(Cc1cccnc1)C(=O)COc1ccc(Cl)c(Cl)c1.O=[N+]([O-])c1cc([N+](=O)[O-])c(O)c([N+](=O)[O-])c1` the inhibition was inactive: 1.73%.
In the case of `O=[N+]([O-])c1cc([N+](=O)[O-])c(-n2nnc3ccccc32)c([N+](=O)[O-])c1`, the inhibition is reported as inactive: 4.8%.
For `O=[N+]([O-])c1cc([N+](=O)[O-])c(-c2cnn(-c3ccccc3)c2)c([N+](=O)[O-])c1`, the inhibition was inactive: -1.61%.
With `CCOC(=O)C(CC)C1=NC(C)(C)Cc2ccccc21.O=[N+]([O-])c1cc([N+](=O)[O-])c(O)c([N+](=O)[O-])c1` (stereo unspecified) the inhibition was inactive: -1.07%.
In the case of `O=[N+]([O-])c1cc([N+](=O)[O-])c(Nc2nnnn2CCO)c([N+](=O)[O-])c1`, the inhibition is reported as inactive: 5.42%.
With `COc1ccc(-c2ccccn2)cc1.O=[N+]([O-])c1cc([N+](=O)[O-])c(O)c([N+](=O)[O-])c1` the inhibition was inactive: -1.01%.
`CCCOc1ccc(NP(C)(=O)Oc2ccc(Cl)cc2)cc1` (stereo unspecified) was tested, and the inhibition was inactive: 0.891%.
In the case of `CN1CCCCC1COC(=O)C1(O)c2ccccc2CCc2ccccc21` (stereo unspecified), the inhibition is reported as inactive: -0.209%.
